Results from patent US20060148020A1, “Inhibitors of gst a3-3 and gst a1-1 for the treatment of cancer” (priority 2002, published 2006).

The chains behind the UniProt entries cited, without tags or fusion partners. Where a name states a change or a piece, a line headed by the entry shows the natural chain unless it says otherwise.
UniProt Q16772: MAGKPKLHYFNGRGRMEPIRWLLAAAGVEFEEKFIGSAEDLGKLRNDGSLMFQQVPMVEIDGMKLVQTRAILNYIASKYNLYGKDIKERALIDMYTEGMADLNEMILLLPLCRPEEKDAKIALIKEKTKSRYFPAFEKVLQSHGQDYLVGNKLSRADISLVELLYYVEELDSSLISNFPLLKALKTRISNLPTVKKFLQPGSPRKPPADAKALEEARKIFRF
UniProt P09210: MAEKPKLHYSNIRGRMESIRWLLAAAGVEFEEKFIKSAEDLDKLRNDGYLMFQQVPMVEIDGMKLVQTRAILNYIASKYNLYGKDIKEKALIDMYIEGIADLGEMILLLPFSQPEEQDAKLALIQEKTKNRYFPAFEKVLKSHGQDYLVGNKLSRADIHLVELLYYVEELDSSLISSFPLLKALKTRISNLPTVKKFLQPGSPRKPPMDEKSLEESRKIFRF
UniProt P08263: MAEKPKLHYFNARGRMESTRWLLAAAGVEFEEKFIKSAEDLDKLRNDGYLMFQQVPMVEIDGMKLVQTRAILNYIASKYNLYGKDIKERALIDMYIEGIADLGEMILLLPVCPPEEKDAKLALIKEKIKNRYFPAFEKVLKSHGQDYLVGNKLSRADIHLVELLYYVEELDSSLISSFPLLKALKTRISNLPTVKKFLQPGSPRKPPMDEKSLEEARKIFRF

What was measured:
Test in all cases: Inhibition of GST-catalyzed reaction, standard assay system (IC50)
GST A3-3 = GST A3-3 (Homo sapiens, UniProt Q16772); conditions: read-out: IC50 Values GST A3-3, inhibitor concentration giving 50% inhibition of the GST-catalyzed reaction, purified recombinant enzyme
GST A2-2 = GST A2-2 (Homo sapiens, UniProt P09210); conditions: read-out: IC50 Values GST A2-2, inhibitor concentration giving 50% inhibition of the GST-catalyzed reaction, purified recombinant enzyme
GST A1-1 = GST A1-1 (Homo sapiens, UniProt P08263); conditions: read-out: IC50 Values GST A1-1, inhibitor concentration giving 50% inhibition of the GST-catalyzed reaction, purified recombinant enzyme

## C[CH2][Sn]([Br])([CH2]C)[CH2]C
GST A3-3
  IC50: 690 nM
GST A2-2
  IC50: 190 nM
GST A1-1
  IC50: 5700 nM
